Results as given in US9694016B2 (Novartis AG, priority 2013, dated 2017).

The chains behind the UniProt entries cited, without tags or fusion partners.
UniProt P04049, whole entry Y340E/Y341E: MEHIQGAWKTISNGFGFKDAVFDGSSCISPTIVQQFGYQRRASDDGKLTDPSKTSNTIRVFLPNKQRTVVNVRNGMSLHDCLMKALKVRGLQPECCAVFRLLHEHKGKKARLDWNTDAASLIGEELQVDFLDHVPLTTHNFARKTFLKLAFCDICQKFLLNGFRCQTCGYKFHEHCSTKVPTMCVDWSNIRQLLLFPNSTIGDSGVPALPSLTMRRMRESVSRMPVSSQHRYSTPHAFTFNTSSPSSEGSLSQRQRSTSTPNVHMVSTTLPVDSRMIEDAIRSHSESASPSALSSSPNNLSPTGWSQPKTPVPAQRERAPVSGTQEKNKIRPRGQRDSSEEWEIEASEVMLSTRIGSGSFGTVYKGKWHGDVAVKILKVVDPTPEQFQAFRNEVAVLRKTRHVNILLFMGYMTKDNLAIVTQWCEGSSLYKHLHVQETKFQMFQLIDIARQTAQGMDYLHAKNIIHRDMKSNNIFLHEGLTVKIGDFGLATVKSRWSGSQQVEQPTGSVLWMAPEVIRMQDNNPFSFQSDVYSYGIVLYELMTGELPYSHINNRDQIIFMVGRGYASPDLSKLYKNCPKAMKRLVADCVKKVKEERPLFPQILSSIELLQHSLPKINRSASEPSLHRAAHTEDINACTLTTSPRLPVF

biological target: C-Raf FL (full-length C-Raf protein, Y340E and Y341E activating mutations) (Homo sapiens (Human), UniProt P04049, Y340E/Y341E); type: biochemical; conditions: AlphaScreen, 60 min pre-incubation, reaction 1 hour at room temperature; read-out: c-Raf FL IC-50

| pIC50 | Compound |
| --- | --- |
| 8.16 | Cc1ncc(NC(=O)c2ccnc(C(C)(C)O)c2)cc1-c1cnc(OC2CCOCC2)c(N2CCOCC2)c1 [Example 939, 2-(2-hydroxypropan-2-yl)-N-(2-methyl-5′-morpholino-6′-((tetrahydro-2H-pyran-4-yl)oxy)-[3,3′-bipyridin]-5-yl)isonicotinamide] |
| 9.17 | Cc1ncc(NC(=O)c2ccnc(C3CC3)c2)cc1-c1cnc(OC2CCOCC2)c(N2CCOCC2)c1 [Example 941, 2-cyclopropyl-N-(2-methyl-5′-morpholino-6′-((tetrahydro-2H-pyran-4-yl)oxy)-[3,3′-bipyridin]-5-yl)isonicotinamide] |
| 9.23 | Cc1ncc(NC(=O)c2cc(C(F)(F)F)ccn2)cc1-c1cnc(OC2CCOCC2)c(N2CCOCC2)c1 [Example 942, N-(2-methyl-5′-morpholino-6′-((tetrahydro-2H-pyran-4-yl)oxy)-[3,3′-bipyridin]-5-yl)-4-(trifluoromethyl)picolinamide] |
| 8.57 | Cc1ncc(NC(=O)c2cc(C(C)(C)C#N)ccn2)cc1-c1cnc(OC2CCOCC2)c(N2CCOCC2)c1 [Example 943, 4-(2-cyanopropan-2-yl)-N-(2-methyl-5′-morpholino-6′-((tetrahydro-2H-pyran-4-yl)oxy)-[3,3′-bipyridin]-5-yl)picolinamide] |
| 9.28 | Cc1ccc(NC(=O)c2ccnc(C(C)(F)F)c2)cc1-c1cnc(OC(C)C)c(N2CCOCC2)c1 [Example 945, 2-(1,1-difluoroethyl)-N-(3-(6-isopropoxy-5-morpholinopyridin-3-yl)-4-methylphenyl)isonicotinamide] |
| 9.21 | Cc1ccc(NC(=O)c2ccnc(C(C)(C)O)c2)cc1-c1cnc(OC(C)C)c(N2CCOCC2)c1 [Example 947, 2-(2-hydroxypropan-2-yl)-N-(3-(6-isopropoxy-5-morpholinopyridin-3-yl)-4-methylphenyl)isonicotinamide] |
| 9.19 | Cc1ccc(NC(=O)c2cc(C(C)(C)C#N)ccn2)cc1-c1cnc(OC(C)C)c(N2CCOCC2)c1 [Example 948, 4-(2-cyanopropan-2-yl)-N-(3-(6-isopropoxy-5-morpholinopyridin-3-yl)-4-methylphenyl)picolinamide] |
| 8.86 | Cc1ccc(NC(=O)c2cc(C(C)(C)O)ccn2)cc1-c1cnc(OC(C)C)c(N2CCOCC2)c1 [Example 949, 4-(2-hydroxypropan-2-yl)-N-(3-(6-isopropoxy-5-morpholinopyridin-3-yl)-4-methylphenyl)picolinamide] |
| 9.68 | Cc1ccc(NC(=O)c2ccnc(S(C)(=O)=O)c2)cc1-c1cnc(OC(C)C)c(N2CCOCC2)c1 [Example 950, N-(3-(6-isopropoxy-5-morpholinopyridin-3-yl)-4-methylphenyl)-2-(methylsulfonyl)isonicotinamide] |
| 9.96 | Cc1ccc(NC(=O)c2cncc(C(F)(F)F)c2)cc1-c1cnc(OC(C)C)c(N2CCOCC2)c1 [Example 951, N-(3-(6-isopropoxy-5-morpholinopyridin-3-yl)-4-methylphenyl)-5-(trifluoromethyl)nicotinamide] |
| 9.15 | Cc1ncc(NC(=O)c2ccnc(C(C)(F)F)c2)cc1-c1cnc(OC(C)C)c(N2CCOCC2)c1 [Example 952, 2-(1,1-difluoroethyl)-N-(6′-isopropoxy-2-methyl-5′-morpholino-[3,3′-bipyridin]-5-yl)isonicotinamide] |
| 8.87 | Cc1ncc(NC(=O)c2ccnc(C(C)(C)F)c2)cc1-c1cnc(OC(C)C)c(N2CCOCC2)c1 [Example 953, 2-(2-fluoropropan-2-yl)-N-(6′-isopropoxy-2-methyl-5′-morpholino-[3,3′-bipyridin]-5-yl)isonicotinamide] |
| 8.61 | Cc1ncc(NC(=O)c2ccnc(C(C)(C)C#N)c2)cc1-c1cnc(OC(C)C)c(N2CCOCC2)c1 [Example 954, 2-(2-cyanopropan-2-yl)-N-(6′-isopropoxy-2-methyl-5′-morpholino-[3,3′-bipyridin]-5-yl)isonicotinamide] |
| 8.10 | Cc1ncc(NC(=O)c2ccnc(C(C)(C)O)c2)cc1-c1cnc(OC(C)C)c(N2CCOCC2)c1 [Example 955, 2-(2-hydroxypropan-2-yl)-N-(6′-isopropoxy-2-methyl-5′-morpholino-[3,3′-bipyridin]-5-yl)isonicotinamide] |
| 8.94 | Cc1ncc(NC(=O)c2cc(C(C)(F)F)ccn2)cc1-c1cnc(OC(C)C)c(N2CCOCC2)c1 [Example 956, 4-(1,1-difluoroethyl)-N-(6′-isopropoxy-2-methyl-5-morpholino-[3,3′-bipyridin]-5-yl)picolinamide] |
| 8.62 | Cc1ncc(NC(=O)c2cc(C(C)(C)F)ccn2)cc1-c1cnc(OC(C)C)c(N2CCOCC2)c1 [Example 957, 4-(2-fluoropropan-2-yl)-N-(6′-isopropoxy-2-methyl-5′-morpholino-[3,3′-bipyridin]-5-yl)picolinamide] |
| 8.20 | Cc1ncc(NC(=O)c2cc(C(C)(C)O)ccn2)cc1-c1cnc(OC(C)C)c(N2CCOCC2)c1 [Example 959, 4-(2-hydroxypropan-2-yl)-N-(6′-isopropoxy-2-methyl-5′-morpholino-[3,3′-bipyridin]-5-yl)picolinamide] |

| pIC50 | Compound |
| --- | --- |
| 8.93 | Cc1ncc(NC(=O)c2cncc(C(F)(F)F)c2)cc1-c1cnc(OC(C)C)c(N2CCOCC2)c1 [Example 960, N-(6′-isopropoxy-2-methyl-5′-morpholino-[3,3′-bipyridin]-5-yl)-5-(trifluoromethyl)nicotinamide] |
| 9.15 | CCOc1ncc(-c2cc(C(=O)Nc3cc(C(F)(F)F)ncc3F)ccc2C)cc1N1CCOCC1 [Example 961, 3-(6-ethoxy-5-morpholinopyridin-3-yl)-N-(5-fluoro-2-(trifluoromethyl)pyridin-4-yl)-4-methylbenzamide] |
| 8.41 | Cc1ncc(NC(=O)c2cnnc(C(C)(C)C#N)c2)cc1-c1cnc(OCC(F)F)c(N2CCOCC2)c1 [Example 962, 6-(2-cyanopropan-2-yl)-N-(6′-(2,2-difluoroethoxy)-2-methyl-5′-morpholino-[3,3′-bipyridin]-5-yl)pyridazine-4-carboxamide] |
| 8.98 | Cc1ncc(NC(=O)c2ccnc(C(C)(C)F)c2)cc1-c1cnc(OC2CC3(COC3)C2)c(N2CCOCC2)c1 [Example 963, N-(6′-(2-oxaspiro[3.3]heptan-6-yloxy)-2-methyl-5′-morpholino-[3,3′-bipyridin]-5-yl)-2-(2-fluoropropan-2-yl)isonicotinamide] |
| 8.50 | Cc1ncc(NC(=O)c2ccnc(C(C)(C)O)c2)cc1-c1cnc(OC2CC3(COC3)C2)c(N2CCOCC2)c1 [Example 964, N-(6′-(2-oxaspiro[3.3]heptan-6-yloxy)-2-methyl-5′-morpholino-[3,3′-bipyridin]-5-yl)-2-(2-hydroxypropan-2-yl)isonicotinamide] |
| 9.15 | Cc1ncc(NC(=O)c2ccnc(C(F)F)c2)cc1-c1cnc(OC2CC3(COC3)C2)c(N2CCOCC2)c1 [Example 965, N-(6′-(2-oxaspiro[3.3]heptan-6-yloxy)-2-methyl-5′-morpholino-[3,3′-bipyridin]-5-yl)-2-(difluoromethyl)isonicotinamide] |
| 8.67 | Cc1ncc(NC(=O)c2ccnc(C(C)(C)C#N)c2)cc1-c1cnc(OC2CC3(COC3)C2)c(N2CCOCC2)c1 [Example 967, N-(6′-(2-oxaspiro[3.3]heptan-6-yloxy)-2-methyl-5′-morpholino-[3,3′-bipyridin]-5-yl)-2-(2-cyanopropan-2-yl)isonicotinamide] |
| 9.01 | Cc1ncc(NC(=O)c2cc(C(C)(C)F)ccn2)cc1-c1cnc(OC2CC3(COC3)C2)c(N2CCOCC2)c1 [Example 968, N-(6′-(2-oxaspiro[3.3]heptan-6-yloxy)-2-methyl-5′-morpholino-[3,3′-bipyridin]-5-yl)-4-(2-fluoropropan-2-yl)picolinamide] |
| 8.30 | Cc1ncc(NC(=O)c2cc(C(C)(C)O)ccn2)cc1-c1cnc(OC2CC3(COC3)C2)c(N2CCOCC2)c1 [Example 969, N-(6′-(2-oxaspiro[3.3]heptan-6-yloxy)-2-methyl-5′-morpholino-[3,3′-bipyridin]-5-yl)-4-(2-hydroxypropan-2-yl)picolinamide] |
| 8.63 | Cc1ncc(NC(=O)c2cc(C(C)(C)C#N)ccn2)cc1-c1cnc(OC2CC3(COC3)C2)c(N2CCOCC2)c1 [Example 970, N-(6′-(2-oxaspiro[3.3]heptan-6-yloxy)-2-methyl-5′-morpholino-[3,3′-bipyridin]-5-yl)-4-(2-cyanopropan-2-yl)picolinamide] |
| 8.59 | Cc1ncc(NC(=O)c2cc(C(C)(C)F)ccn2)cc1-c1cnc(OCCO)c(N2CCOCC2)c1 [Example 971, 4-(2-fluoropropan-2-yl)-N-(6′-(2-hydroxyethoxy)-2-methyl-5-morpholino-[3,3′-bipyridin]-5-yl)picolinamide] |
| 7.93 | Cc1ncc(NC(=O)c2cc(C(C)(C)O)ccn2)cc1-c1cnc(OCCO)c(N2CCOCC2)c1 [Example 972, N-(6′-(2-hydroxyethoxy)-2-methyl-5-morpholino-[3,3′-bipyridin]-5-yl)-4-(2-hydroxypropan-2-yl)picolinamide] |
| 8.25 | Cc1ncc(NC(=O)c2cc(C(C)(C)C#N)ccn2)cc1-c1cnc(OCCO)c(N2CCOCC2)c1 [Example 973, 4-(2-cyanopropan-2-yl)-N-(6′-(2-hydroxyethoxy)-2-methyl-5′-morpholino-[3,3′-bipyridin]-5-yl)picolinamide] |
| 9.02 | Cc1ncc(NC(=O)c2cc(C(C)(F)F)ccn2)cc1-c1cnc(OCCO)c(N2CCOCC2)c1 [Example 974, 4-(1,1-difluoroethyl)-N-(6′-(2-hydroxyethoxy)-2-methyl-5-morpholino-[3,3′-bipyridin]-5-yl)picolinamide] |
| 9.11 | CCOc1ncc(-c2cc(NC(=O)c3cccc(S(C)(=N)=O)c3)ccc2C)cc1N1CCOCC1 (stereo not drawn) [Example 975, N-(3-(6-ethoxy-5-morpholinopyridin-3-yl)-4-methylphenyl)-3-(S-methylsulfonimidoyl)benzamide] |
| 8.75 | Cc1ncc(NC(=O)c2cccc(C(O)C(F)(F)F)c2)cc1-c1cnc(OC2CCOCC2)c(N2CCOCC2)c1 (stereo not drawn) [Example 977, N-(2-methyl-5′-morpholino-6′-((tetrahydro-2H-pyran-4-yl)oxy)[3,3′-bipyridin]-5-yl)-3-(2,2,2-trifluoro-1-hydroxyethyl)benzamide] |

pIC50: −log10 of the molar value.
